Patent US12258584B2, “Methods and systems for converting precursor cells into intestinal tissues through directed differentiation” (Children's Hospital Medical Center, priority 2010, dated 2025)

Tests used:
[1] = tested on: monolayers from human embryonic and induced pluripotent stem cells; test: BMP2 added to monolayers during 96-hour WNT/FGF treatment, regional marker expression; assay type: cell-based; conditions: added during 96-hour WNT/FGF (W/F) treatment
Method: Following definitive endoderm (DE) induction with activin (100 ng/ml) for 3 days, a 2-4 day treatment was performed with the indicated combination of factors: Wnt3a (500 ng/ml) and Fgf4 (500 ng/ml), Retinoic acid (RA) in a range of 0.2-20 μM the BMP antagonist Noggin (50 ng/ml), the WNT antagonist […] (1-500 ng/ml).

intestinal organoids = test: Intestinal regionalization of hindgut spheroids in 3D matrigel culture with BMP or noggin; assay type: cell-based, human; conditions: 3D cultures of hindgut spheroids; after 28 days
Method: For investigating the impact of BMP signaling on intestinal regionalization after hindgut formation, hindgut spheroids were plated in matrigel and BMP or noggin were added to EGF/Rspondid1 containing media. Intestinal organoids were analyzed after 28 days.

hESC-H9 = test: Affymetrix microarray analysis of transcript levels during DE formation; assay type: cell-based, human; conditions: 3-day activin treated vs undifferentiated cultures, label = gene symbol of the transcript
Method: (§1) FIGS. 6a and 6b illustrate exemplary embodiments in accordance with the present invention, depicting characterization of DE formation from hESC and iPSC lines by immuno-fluorescence (IF) and Microarray analysis. (a) Undifferentiated hESCs stained with the pluripotency marker OCT4 (green) were treated for 3 days with ActivinA. This DE induction protocol routinely results in 80-90% SOX17 (green)/FOXA2 (red) double positive cells in both hESCs and iPSCs. (b) Transcriptional profile of DE induction. hESC-H9 and iPSC lines 3.5, 3.6 and 3.12 were analyzed before and after DE formation (activin differentiation) by Affymetrix DNA microarray analysis.
(§2) For microarray analysis, RNA was isolated from undifferentiated and 3-day activin treated hESC and iPSC cultures and used create target DNA for hybridization to Affymetrix Human 1.0 Gene ST Arrays using standard procedures (Affymetrix, Santa Clara, CA). Independent biological triplicates were performed for each cell line and condition. Affymetrix microarray Cel files were subjected to Robust Multichip Average (RMA) normalization in GeneSpring 10.1. Probe sets were first filtered for those that are overexpressed or underexpressed and then subjected to statistical analysis for differential expression by 3 fold or more between undifferentiated and differentiated cultures with p<0.05 using the Students T-test. […]

iPSC line 3.12 = test: as above; assay type: cell-based, human; conditions: 3-day activin treated vs undifferentiated cultures, label = gene symbol of the transcript
Method: as §1, §2

iPSC3.4 = test: as above; assay type: cell-based, human; conditions: 3-day activin treated vs undifferentiated cultures, label = gene symbol of the transcript
Method: For microarray analysis, RNA was isolated from undifferentiated and 3-day activin treated hESC and iPSC cultures and used create target DNA for hybridization to Affymetrix Human 1.0 Gene ST Arrays using standard procedures (Affymetrix, Santa Clara, CA). Independent biological triplicates were performed for each cell line and condition. Affymetrix microarray Cel files were subjected to Robust Multichip Average (RMA) normalization in GeneSpring 10.1. Probe sets were first filtered for those that are overexpressed or underexpressed and then subjected to statistical analysis for differential expression by 3 fold or more between undifferentiated and differentiated cultures with p<0.05 using the Students T-test. Log 2 gene expression ratios were then subjected to hierachical clustering using the standard correlation distance metric as implemented in GeneSpring.

Substance: BMP2: BMP ligand added to WNT/FGF monolayers or 3D organoid cultures to activate BMP signaling
- expression of GATA4 compared to W/F alone [1]: decreased expression
- expression of HOXA13 compared to W/F alone [1]: increased expression
- expression of HOXC9 (distal small bowel and proximal colon) compared to W/F alone [1]: increased expression
- expression of HOXD13 compared to W/F alone [1]: increased expression
- expression of CA1 (carbonic anhydrase-colonocyte marker) compared to Nog/EGF/Rspo1 cocktail without BMP2 (intestinal organoids): increased expression
- expression of HOXD13 compared to Nog/EGF/Rspo1 cocktail without BMP2 (intestinal organoids): increased expression
- relative expression of PDX1 compared to Nog/EGF/Rspo1 cocktail without BMP2 (intestinal organoids): decreased relative expression
- DIFF'D-H9] VS [IFF'D-H9] (folds), variation of transcript level during DE formation (hESC-H9): 5.95 folds
- [DIFF'D-IPSC3.12] VS [IFF'D-IPSC3.12] (folds), variation of transcript level during DE formation (iPSC line 3.12): 7.43 folds
- [Diff'd-iPSC3.4] vs [Undiff d-iPSC3.4] (folds), variation of transcript level during DE formation (iPSC3.4): 6.96 folds
